We go through 11 compounds from PubChem BioAssay AID1347077 (National Center for Advancing Translational Sciences (NCATS), 2019).

The chains behind the UniProt entries cited, without tags or fusion partners.
UniProt P07550, whole entry: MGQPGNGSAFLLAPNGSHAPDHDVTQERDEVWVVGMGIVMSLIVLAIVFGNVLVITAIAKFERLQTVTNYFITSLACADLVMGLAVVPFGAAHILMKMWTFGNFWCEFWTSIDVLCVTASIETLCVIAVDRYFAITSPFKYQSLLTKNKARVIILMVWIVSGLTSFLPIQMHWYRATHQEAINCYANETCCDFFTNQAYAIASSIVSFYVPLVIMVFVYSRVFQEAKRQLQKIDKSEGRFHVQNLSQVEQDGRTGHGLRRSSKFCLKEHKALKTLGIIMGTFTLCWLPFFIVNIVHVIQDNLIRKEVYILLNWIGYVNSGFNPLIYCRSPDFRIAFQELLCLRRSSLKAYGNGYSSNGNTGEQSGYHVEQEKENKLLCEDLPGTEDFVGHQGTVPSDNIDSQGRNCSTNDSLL

Only a part is listed here, and it is no random draw. Some tests of the compounds listed are not included; inactive here does not mean inactive elsewhere. The source made the active and inactive calls. Calls follow the shape of the dose curve; as a rule, active = well fitted activation curve with a large enough effect; inconclusive = small, poorly fitted or top-dose-only effect, or another doubt; inactive = no such curve, though single readings can be large or run the other way.

The test addresses Beta-2 adrenergic receptor (Homo sapiens) (UniProt P07550). Kind of test: qHTS assay of beta-arrestin-biased ligands of beta2-adrenergic receptor: NCGC Sytravon Library Screen.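 Also: 0% = DMSO and full agonism = EC100 isoproterenol or metaproterenol.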 As to conditions: HTLA Tango cells, beta-arrestin recruitment, luciferase luminescence, 18 h; at 46.1 µM (top of the series). The source says:
The concept of biased agonism is an emerging concept of molecular pharmacology which proposes that seven transmembrane receptors (7TMRs) or G protein-coupled receptors (GPCRs), exist in multiple signaling conformations and complexes and that ligands (either agonists or antagonists) can induce signaling biased responses for distinct signal transduction cascades. […] Furthermore, accumulating evidence over the last decade has drawn attention to a novel function of beta-arrestins as signal transducers that scaffold various signaling molecules upon activation of 7TMRs. […] This beta-arrestin-biased signaling presumably leads to distinct physiological outcomes from those by G protein activation. Additionally, the active receptor conformations which prefer on this beta-arrestin signaling are likely different from those activating G protein signaling. […] The goal of this screening project will be to discover and optimize novel beta-arrestin-biased ligands for beta2-AR signaling. A luminescent cell-based assay for beta2-AR-mediated agonism, known as the Tango assay, has been validated in which ligand binding of a recombinant beta2-AR and subsequent recruitment of a recombinant beta-arrestin lead to the release of the transcriptional activator tTA, which upregulates transcription of a tTA-responsive luciferase gene. […] Compounds from the NCGC Sytravon Library collection were screened as a concentration-titration series that ranged from 46 microM to 0.6 nM. NIH Molecular Libraries Probe Production Network [MLPCN] NIH Chemical Genomics Center [NCGC] MLPCN Grant: Fast-track/HHSN271700800025C PI: Bryan Roth and Bob Lefkowitz
Tango cells were dispensed into white, solid, tissue-culture-treated 1536-well plates at 1500 cells/well in DMEM, containing 1% fetal bovine serum (FBS). Then, 23 nL of compounds or DMSO were delivered to each well using a pin tool. Plates were incubated at 37 degrees C, 5% CO2 for 18 hr. Then 2.5 uL luminescent substrate mix (in-house prepared: 150 mM Tris-Cl, pH 7.6, 3 mM MgCl2, 1% Triton X-100, 5 mM DTT, 0.5 mM CoA, 0.15 mM ATP, 0.44 mM D-luciferin, final concentrations) was added to each well. Plates were then incubated for 15 minutes at room temperature, and subsequently measured on a ViewLux plate reader for luminescent signal using a clear filter with a 10 second exposure and 2x binning. The %Activity was determined from the corrected luminescence values. […] Concentration-response curves were fitted to the signals arising from the resulting luminescence. The concentration-effect curves were then classified based on curve quality (r2), response magnitude and degree of measured activity, and compounds were subsequently categorized based on their curve class.
(qHTS replaces the single test concentration by a dilution series.)
In the case of `CN(C)C1(CNC(=O)c2ccccc2[N+](=O)[O-])CCCCC1`, the activation is inactive: -4%. As for `CCCCOc1ccccc1C(=O)NCC1(N(C)C)CCCCC1`, the figure is inactive: -4.07%; as for `CCOc1cccc(C(=O)NCC2(N(C)C)CCCCC2)c1`, inactive: -0.878%; as for `CN(C)C1(CNC(=O)c2cccc(Cl)c2)CCCCC1`, inactive: -3.14%. Regarding `CN(C)C1(CNC(=O)c2ccccc2F)CCCCC1`, the activation was inactive: -3.4%. As for `COc1cccc(C(=O)NCC2(N3CCOCC3)CCCCC2)c1`, the figure is inactive: -2.29%. For the compound `CC(C)COc1ccc(C(=O)NCC2(N(C)C)CCCCC2)cc1`, the activation is inactive: -3.33%.

Turning to `Cc1cccc(C(=O)NCC2(N(C)C)CCCCC2)c1`, the activation was inactive: -3.76%.

Regarding `COc1cc(C(=O)NCC2(N(C)C)CCCCC2)cc(OC)c1OC`, the activation was inactive: -1.37%.

Regarding `CC(C)Oc1ccc(C(=O)NCC2(N(C)C)CCCCC2)cc1`, the activation is inactive: -4.55%.

Consider `COc1ccc(C(=O)NCC2(N(C)C)CCCCC2)cc1Cl`, for which the activation was inactive: -2.98%.
